Measured values: patent US20190284192A1, “NITROGENOUS MACROCYCLIC COMPOUND, PREPARATION METHOD THEREFOR, PHARMACEUTICAL COMPOSITION AND APPLICATION THEREOF” (LUOXIN PHARMACEUTICAL (SHANGHAI) CO., LTD., priority 2016, published 2019)

Tested on: MV-4-11 subcutaneous xenograft tumor
Test: Anti-tumor efficacy in vivo, MV-4-11 subcutaneous xenograft model
Design: species or system BALB/c nude mice
Settings: for P, tumor volume difference between the control group and the administrated group: Two-way Anova Bonferroni post-test

CCNC(=O)C[C@@H]1N=C(c2ccc(Cl)cc2)c2cc(OC)ccc2-n2c(C)nnc21 [GSK762]
T/C % (TRTV/CRTV, intragastric QD*14, ABBV-075 3, GSK762 15, 4009 10 mg/kg, 15th day): 60.33%
P, tumor volume difference between the control group and the administrated group (day 1 after administration, ABBV-075 3, GSK762 15, 4009 10 mg/kg): P > 0.05
P, tumor volume difference between the control group and the administrated group (day 4 after administration, ABBV-075 3, GSK762 15, 4009 10 mg/kg): P > 0.05
P, tumor volume difference between the control group and the administrated group (day 6 after administration, ABBV-075 3, GSK762 15, 4009 10 mg/kg): P > 0.05
P, tumor volume difference between the control group and the administrated group (day 8 after administration, ABBV-075 3, GSK762 15, 4009 10 mg/kg): P > 0.05
P, tumor volume difference between the control group and the administrated group (day 11 after administration, ABBV-075 3, GSK762 15, 4009 10 mg/kg): P < 0.05 (*)
P, tumor volume difference between the control group and the administrated group (day 13 after administration, ABBV-075 3, GSK762 15, 4009 10 mg/kg): P < 0.01 (**)
P, tumor volume difference between the control group and the administrated group (day 15 after administration, ABBV-075 3, GSK762 15, 4009 10 mg/kg): P < 0.001 (***)
tumor volume TGI (%) (from 11th to 15th day of administration, GSK762 15 mg/kg): less than 58%
Average tumor volume, Treatement starts 1st day (intragastric QD*14, ABBV-075 3, GSK762 15, 4009 10 mg/kg, 1st day): 137.82 ± 18.64 mm^3
Tumor volume TGI (%) 4th day (intragastric QD*14, ABBV-075 3, GSK762 15, 4009 10 mg/kg, 4th day): 88.15%
Tumor volume TGI (%) 6th day (intragastric QD*14, ABBV-075 3, GSK762 15, 4009 10 mg/kg, 6th day): 65.11%
Tumor volume TGI (%) 8th day (intragastric QD*14, ABBV-075 3, GSK762 15, 4009 10 mg/kg, 8th day): 60.5%
Tumor volume TGI (%) 11th day (intragastric QD*14, ABBV-075 3, GSK762 15, 4009 10 mg/kg, 11th day): 51.86%
Tumor volume TGI (%) 13th day (intragastric QD*14, ABBV-075 3, GSK762 15, 4009 10 mg/kg, 13th day): 51.9%
Tumor volume TGI (%) 15th day (intragastric QD*14, ABBV-075 3, GSK762 15, 4009 10 mg/kg, 15th day): 46.58%
Average tumor volume, Treatement ends 15th day (intragastric QD*14, ABBV-075 3, GSK762 15, 4009 10 mg/kg, 15th day, 10 mg/kg): 617.02 mm^3 and 617.02 ± 131.69 mm^3

“And” between values parts separate entries of the source, which are not always exact repeats. Equal values may be shown once.
